Measured values published in ChEMBL document CHEMBL1130342, “Synthesis and evaluation of 2-(arylamino)imidazoles as alpha 2-adrenergic agonists” (J Med Chem, 1997).

The chains behind the UniProt entries cited, without tags or fusion partners.
UniProt P19328, whole entry: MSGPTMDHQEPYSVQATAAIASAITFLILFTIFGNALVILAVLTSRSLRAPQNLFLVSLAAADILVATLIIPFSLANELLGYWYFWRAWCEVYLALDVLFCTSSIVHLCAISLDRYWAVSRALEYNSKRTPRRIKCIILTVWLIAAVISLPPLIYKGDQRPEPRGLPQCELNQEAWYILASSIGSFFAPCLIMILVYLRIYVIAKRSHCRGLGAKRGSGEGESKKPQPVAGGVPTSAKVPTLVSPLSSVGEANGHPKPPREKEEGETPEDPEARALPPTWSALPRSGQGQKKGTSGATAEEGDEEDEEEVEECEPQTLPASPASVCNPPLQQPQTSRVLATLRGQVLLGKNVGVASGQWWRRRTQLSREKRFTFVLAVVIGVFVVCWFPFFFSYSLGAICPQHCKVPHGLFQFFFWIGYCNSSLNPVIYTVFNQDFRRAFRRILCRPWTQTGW

Molecular target: Alpha-2B adrenergic receptor (Rattus norvegicus, UniProt P19328)
Assay: Effective Concentration at Alpha-2B adrenergic receptor from CHO-RNG cells
Type: functional, cell-based
How it was run: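 Functional agonist response measured by Cytosensor microphysiometry in CHO cells expressing α2A (CHO-C10) or rat α2B (CHO-RNG) adrenoceptor.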

Brc1c(NC2=NCCN2)ccc2nccnc12 [BRIMONIDINE]
EC50: 55 nM
